In patent US5246947A, “Substituted pyridinylamino-1,2-benzisothiazoles and their use for treating depression” (Hoechst-Roussel Pharmaceuticals Incorporated, priority 1992, dated 1993):
pIC50: −log10 of the molar value.

Chains of the proteins cited; added tags and fusions are not shown.
UniProt P22909, whole entry: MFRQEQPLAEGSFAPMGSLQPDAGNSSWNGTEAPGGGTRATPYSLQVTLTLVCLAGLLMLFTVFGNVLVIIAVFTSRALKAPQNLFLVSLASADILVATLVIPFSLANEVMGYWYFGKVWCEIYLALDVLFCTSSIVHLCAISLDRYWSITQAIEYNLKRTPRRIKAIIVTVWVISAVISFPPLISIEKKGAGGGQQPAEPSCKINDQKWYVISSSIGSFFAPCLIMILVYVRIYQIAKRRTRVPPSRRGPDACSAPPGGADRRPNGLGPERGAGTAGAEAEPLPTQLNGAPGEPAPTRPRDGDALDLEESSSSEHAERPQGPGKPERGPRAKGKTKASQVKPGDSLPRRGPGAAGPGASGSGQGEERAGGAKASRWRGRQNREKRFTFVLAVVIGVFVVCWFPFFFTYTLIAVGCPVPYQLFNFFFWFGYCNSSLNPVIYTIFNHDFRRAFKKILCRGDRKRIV

Molecular target: T1, α2-Receptor (Rattus norvegicus, UniProt P22909)
T1 construct: the cortical tissue rapidly dissected; from tissue; host or cells: cortical tissue of male Wistar rats, washed membrane suspension
Assay: [^3 H]-Clonidine Binding: α2-Receptor
Parameters: species or system rat (male Wistar)
Conditions: rat cortical tissue; 3 nM [^3 H]-clonidine; 25° C., 20 min; Table 2

CN(C)CCC=C1c2ccccc2CCc2ccccc21 [Amitriptyline]
pIC50: 5.41
